Measured values published in ChEMBL document CHEMBL5257080, “Optimization of physicochemical properties of pyrrolidine GPR40 AgoPAMs results in a differentiated profile with improved pharmacokinetics and reduced off-target activities” (Bioorg Med Chem, 2023).

By UniProt entry, the sequences of proteins in these tests, tags left out.
UniProt O14842, whole entry: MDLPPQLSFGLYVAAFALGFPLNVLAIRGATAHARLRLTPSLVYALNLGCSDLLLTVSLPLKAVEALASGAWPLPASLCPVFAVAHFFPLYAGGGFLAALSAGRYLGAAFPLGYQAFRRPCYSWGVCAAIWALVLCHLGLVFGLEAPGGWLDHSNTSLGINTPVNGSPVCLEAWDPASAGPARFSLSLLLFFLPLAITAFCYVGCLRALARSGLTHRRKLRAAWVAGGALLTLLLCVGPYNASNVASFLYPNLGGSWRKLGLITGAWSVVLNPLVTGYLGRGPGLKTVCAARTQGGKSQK

Target: Free fatty acid receptor 1 (Homo sapiens, UniProt O14842)
Experiment: Positive allosteric modulation of human GPR40 expressed in HEK293 cells assessed as maximum efficacy relative to control
Type: cell-based
Conditions: filed as positive allosteric modulator

SMILES | Emax [%]
COc1ccc(F)c(N2CCC(Oc3ccc(N4CCC[C@@H]4CC(=O)O)cc3)CC2)c1 | 92
COc1ccc(F)c(N2CCC(Oc3ccc(N4CCC[C@H]4CC(=O)O)cc3)CC2)c1 | 62
